Structures are written as SMILES.

Broadly, the EC50 is the midpoint of the concentration-response curve.

One assay is described as follows: Displacement of Cy3-labeled geldanamycin from HSP90 in Candida albicans clinical isolate 2 cell lysate measured after […] by fluorescence polarization assay. The assay is classed as subcellular. (In general: In fluorescence polarisation assays a small probe gives low polarisation when free and higher when bound to something large.)
Compound `Cc1ccc(-c2cc(Nc3cc(O)cc(O)c3C(=O)N3Cc4cccnc4C3)n(C)n2)cc1` yielded a concentration for a half-maximal effect (EC50) of 1780 nM.

A short description of another assay: Displacement of Cy3-labeled geldanamycin from HSP90 in Cryptococcus neoformans H99 cell lysate measured after […] by fluorescence polarization assay. The assay is classed as subcellular.
The compound `Cn1nc(-c2ccccc2)cc1Nc1cc(O)cc(O)c1C(=O)N1Cc2cccnc2C1` showed an EC50 of 127 nM. This counts as sub-micromolar. On the same count and under the same terms, as for `COc1ccc(Cn2ncc(C(C)C)c2Nc2cc(O)cc(O)c2C(=O)N2Cc3ccccc3C2)cc1`, the figure is 396 nM; as for `CC(C)n1nccc1Nc1cc(O)cc(O)c1C(=O)N1Cc2ccccc2C1`, 125 nM. Compound `O=C(c1c(O)cc(O)cc1Nc1cc(-c2ccccc2)nn1C1CCCCC1)N1Cc2cn[nH]c2C1` registered an EC50 of 419 nM. Compared with the last compound, the EC50 is about 3.4-fold higher.

`COc1ccc(Cn2ncc(Cc3ccccc3)c2Nc2cc(O)cc(O)c2C(=O)N2Cc3ccccc3C2)cc1` returned an EC50 of 1760 nM. On the same count and under the same terms, to `Cc1ccc(-c2cc(Nc3cc(O)cc(O)c3C(=O)N3Cc4cccnc4C3)n(C)n2)cc1` belongs 1780 nM; to `COc1ccc(Cn2nc(C)cc2Nc2cc(O)cc(O)c2C(=O)N(C)Cc2ccccc2)cc1`, 4810 nM; to `Cn1nccc1Nc1cc(O)cc(O)c1C(=O)N1Cc2cn[nH]c2C1`, 142 nM. Still for that read-out and setting: to `CC(C)(C)n1nc(-c2ccccc2)cc1Nc1cc(O)cc(O)c1C(=O)N1Cc2cn[nH]c2C1` belongs 379 nM. Still for that read-out and setting: to `COc1ccc(Cn2nc(C)cc2Nc2cc(O)cc(O)c2C(=O)N(C)CC2CC2)cc1` belongs 1330 nM; to `Cc1ccc(Cn2nc(C)cc2Nc2cc(O)cc(O)c2C(=O)N2Cc3ccccc3C2)cc1`, 252 nM; to `COc1ccc(Cn2ncc(-c3ccccc3)c2Nc2cc(O)cc(O)c2C(=O)N2Cc3ccccc3C2)cc1`, 1620 nM. In the case of `O=C(c1c(O)cc(O)cc1Nc1ccnn1Cc1cccnc1)N1Cc2cccnc2C1`, the response was half-maximal at 207 nM (EC50). On the same count and under the same terms, as for `O=C(c1c(O)cc(O)cc1Nc1cc(-c2ccccc2)nn1C1CCCCC1)N1Cc2cccnc2C1`, the figure is 615 nM; as for `CC(C)(C)n1nc(-c2ccccc2)cc1Nc1cc(O)cc(O)c1C(=O)N1Cc2cccnc2C1`, 517 nM. As to `O=C(c1c(O)cc(O)cc1Nc1ccnn1Cc1ccco1)N1Cc2cccnc2C1`, the half-maximal effective concentration (EC50) worked out at 106 nM. Still for that read-out and setting: as for `Cn1nccc1Nc1cc(O)cc(O)c1C(=O)N1Cc2cccnc2C1`, the figure is 286 nM.

The record behind these values is ChEMBL document CHEMBL4402526, “Design and Synthesis of Fungal-Selective Resorcylate Aminopyrazole Hsp90 Inhibitors” (J Med Chem, 2020).
